From US6852332B2, “Liquid vitamin composition” (Adisseo France S.A.S., priority 2000, dated 2005)

Experiment: Stability of second liquid vitamin formulation (Example 1), stored at 40° C., HPLC
Format: physicochemical
Procedure: The stability of each formulation in the composition each was determined over a 4 weeks period. The concentration of vitamin in the formulation was analysed using standard analytical methods (high performance liquid chromatography). The formulations were stored at 40° C. over the test period.

Question: What does the source list for thiamine mononitrate [Vitamin B1]?
Answer: CONC at T = 0 (immediately after preparation): 0.265 g % g of solution; CONC at T = 1 week (stored at 40° C., 1 week): 0.245 g % g of solution; CONC at T = 2 weeks (stored at 40° C., 2 weeks): 0.253 g % g of solution; CONC at T = 3 weeks (stored at 40° C., 3 weeks): 0.263 g % g of solution; CONC at T = 4 weeks (stored at 40° C., 4 weeks): 0.248 g % g of solution
